{
  "sequences": {"note": "Sequences of proteins named here, by UniProt entry; tags and fusion partners are left off.", "UniProt Q07869, whole entry": "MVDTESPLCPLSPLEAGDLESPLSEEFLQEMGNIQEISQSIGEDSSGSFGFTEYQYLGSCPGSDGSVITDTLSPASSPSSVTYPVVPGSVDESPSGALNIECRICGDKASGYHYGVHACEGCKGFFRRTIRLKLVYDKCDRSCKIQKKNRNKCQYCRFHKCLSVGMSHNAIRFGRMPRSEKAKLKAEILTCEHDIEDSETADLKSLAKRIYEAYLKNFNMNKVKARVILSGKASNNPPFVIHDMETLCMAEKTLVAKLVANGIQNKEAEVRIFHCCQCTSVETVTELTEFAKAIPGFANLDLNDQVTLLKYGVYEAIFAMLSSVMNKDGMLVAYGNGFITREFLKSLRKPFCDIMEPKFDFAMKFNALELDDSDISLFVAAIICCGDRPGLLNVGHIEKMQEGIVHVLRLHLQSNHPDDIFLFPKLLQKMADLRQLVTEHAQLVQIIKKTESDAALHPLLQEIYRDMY"},
  "source": "patent EP3765450B1",
  "about": "“AGONISTS OF PEROXISOME PROLIFERATOR-ACTIVATED RECEPTOR ALPHA AND METHODS OF USE” (dated 2026)",
  "key": {"hPPARα": {"biological_target": "hPPARα (Homo sapiens, UniProt Q07869)", "assay": "PPARα luciferase cell reporter assay (Indigo Biosciences)", "settings": "hPPARα vs hPPARδ and hPPARγ, in words"}, "[1]": {"assay": "STZ-rat model of diabetic retinopathy, liver phenotype and tolerability"}, "retinal vascular leakage": {"system": "retinal vascular leakage", "assay": "STZ-rat model of diabetic retinopathy, retinal permeability"}, "[2]": {"system": "human retinal capillary endothelial cells (HRCEC)", "assay": "in vitro wound healing assay", "settings": "10 h and 24 h incubation"}, "PPARα": {"system": "PPARα", "assay": "Western blot analysis of PPARα expression in 661W cells", "settings": "24 h, 10 µM, 50 µM and 100 µM"}},
  "data": [
    {"smiles": "COc1ccc(COc2ccc(CNc3cccc(C(=O)O)c3)c(OCc3ccc(OC)cc3)c2)cc1", "values": [
      {"measurement": "isoform selectivity profile", "setting": "hPPARα", "value": "maintains the selectivity"}
    ]},
    {"smiles": "COc1ccc(COc2ccc(CNc3cccc(OC(C)(C)C(=O)O)c3)c(OCc3ccc(OC)cc3)c2)cc1", "values": [
      {"measurement": "isoform selectivity profile", "setting": "hPPARα", "value": "pan-agonist profile was maintained"}
    ]},
    {"smiles": "COc1ccc(COc2ccc(CNc3cccc(C(=O)O)c3)cc2)cc1", "values": [
      {"measurement": "safety profile", "setting": "[1]; after daily injection for one-month", "value": "no observable toxicity"},
      {"measurement": "hepatomegaly", "setting": "[1]; diabetic rats, daily i.p. injection for 26-28 days", "value": "seems to lack signs of hepatomegaly"},
      {"measurement": "retinal vascular leakage", "setting": "retinal vascular leakage; diabetic rats (STZ 55 mg/kg), daily i.p. injection for 26-28 days", "value": "reduces retinal vascular leakage in diabetic rats"},
      {"measurement": "bioavailability", "setting": "retinal vascular leakage; inferred from efficacy after systemic administration", "value": "is bioavailable"},
      {"measurement": "wound closure", "setting": "[2]", "value": "inhibits wound closure in a dose-dependent fashion"},
      {"measurement": "expression of PPARα", "setting": "PPARα", "value": "induced the expression of PPARα in a dose-dependent manner"}
    ]}
  ]
}
